# Laboratory results reported in US20090054517A1, “Phytoestrogens As Regulators Of Hedgehog Signaling And Methods Of Their Use In Cancer Treatment” (priority 2007, published 2009).
# Test system: Hedgehog pathway activity in Shh Light II cells
# Assay: Shh Light II Gli1-responsive luciferase reporter assay
# Type: cell-based
# Details: Shh Light II cells with sonic hedgehog protein, 24 hours, FIG. 7B
# Description: The effects of various phytoestrogens on Hedgehog signaling in a non-tumor cell line Shh Light II were also assessed (FIG. 7B). Shh Light II cells were obtained from the ATCC. These cells, containing the Gli1 responsive promoter driving a luciferase reporter, are a standard tool used to assay Hedgehog pathway activity. Meloni et al., 2006. Cells were allowed to reach confluency in 24-well plates and subsequently treated with the selected phytoestrogens at the amount indicated on the figure, along with the stimulatory sonic hedgehog protein (obtained from R&D Systems). The cells were then grown for 24 hours in phenol red-free DMEM supplemented with 0.5% charcoal stripped fetal bovine serum. Cells were then lysed, and the luciferase and renilla activities of the cell lysates were measured.
structure (smiles),measurement,value
CC1=C2C[C@H]3[C@@H](CC=C4C[C@@H](O)CC[C@@]43C)[C@@H]2CC[C@]12O[C@@H]1C[C@H](C)CN[C@H]1[C@H]2C [cyclopamine],hedgehog activity (luciferase reporter activity),inhibit
